Earlier results in patent publication US12465609B2, “Methods of treating patients suffering from a disease condition or disorder that is associated with an increased glutamate level” (veriNOS operations GmbH, priority 2022, dated 2025).

System: human platelets
Conditions: cited from earlier work

Structure (SMILES): CN[C@H]1CC[C@@H](c2ccc(Cl)c(Cl)c2)c2ccccc21 [Sertraline]
- platelet glutamate uptake: dose dependently reduces
